These results are taken from US10689367B2, “Triazole pyridyl compounds as agonists of the APJ receptor” (AMGEN INC., priority 2016, dated 2020).

By UniProt entry, the sequences of proteins in these tests, tags left out. Where a name states a change or a piece, a line headed by the entry shows the natural chain unless it says otherwise.
UniProt P35414: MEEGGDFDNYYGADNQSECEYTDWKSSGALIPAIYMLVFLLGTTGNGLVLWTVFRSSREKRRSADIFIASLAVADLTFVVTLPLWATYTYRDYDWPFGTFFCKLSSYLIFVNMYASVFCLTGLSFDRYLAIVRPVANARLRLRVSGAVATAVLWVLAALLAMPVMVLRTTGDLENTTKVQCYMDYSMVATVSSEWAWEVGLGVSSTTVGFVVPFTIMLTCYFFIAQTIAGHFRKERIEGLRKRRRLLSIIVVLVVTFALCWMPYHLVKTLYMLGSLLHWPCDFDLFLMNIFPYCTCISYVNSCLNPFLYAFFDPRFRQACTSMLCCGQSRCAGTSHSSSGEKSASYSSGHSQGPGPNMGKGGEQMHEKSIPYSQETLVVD

This experiment addresses human APJ-AT1R (angiotensin Type 1) double stable CHO cell line (Homo sapiens (Human), UniProt P30556+P35414). As to conditions: added in the presence of AngII and APJ small molecule agonists.

With `CCCCc1nc(Cl)c(CO)n1Cc1ccc(-c2ccccc2-c2nn[nH]n2)cc1` [losartan], the “effect of AT1R blockade on APJ/AT1R cooperativity and APJ efficacy” value is “relieved this cooperativity and resulted in synergistic effects of enhancing the efficacy of the APJ receptor”.
